Target: Sigma non-opioid intracellular receptor 1 (Homo sapiens, UniProt Q99720)
Test: Inhibition of [3H](+)-SKF-10047 binding to sigma receptor

SMILES	Ki
C(=C\c1ccccc1)/CN(c1ccccc1)C1CCN(Cc2ccccc2)CC1.O=C(O)/C=C/C(=O)O	1500 nM
C(#Cc1ccccc1)CN(c1ccccc1)C1CCN(Cc2ccccc2)CC1.O=C(O)/C=C/C(=O)O	22 nM

— ChEMBL document CHEMBL1127992, “Novel conformationally restricted aromatic piperidines as selective sigma receptor ligands” (Bioorg Med Chem Lett, 1994)
